Legend:
[1] = test system: MDA-MB-231 cells; assay: Cell viability assay (ATPLite), MDA-MB-231; type: cell-based; conditions: Homo sapiens, 72 hour incubation
Experimental: (§1) Compounds of Formula (I) as obtained above are tested for their effects on inhibition of proliferation of Axl-harboring triple-negative breast cancer cell lines (MDA-MB-231 and Hs578T) and Axl negative breast cancer cell lines (MCF7). Axl is a member of the TAM (TYRO3-Axl-MER) family of receptor tyrosine kinases, which, when activated, can increase tumor cell survival, proliferation, migration and invasion, angiogenesis, and tumor-host interactions. Upon GAS6 binding to Axl, Axl subsequently activates the signaling pathways downstream such as phosphoinositide 3-kinase (PI3K), RAt sarcoma (RAS), and extracellular signal regulated kinase (ERK).
(§2) For cell viability assay, MDA-MB-231 and Hs578T cells expressing human Axl were obtained from the American Type Culture Collection (ATCC, Manassas, VA). This cell line was maintained with an Roswell Park Memorial Institute (RPMI) medium (HYCLONE™) containing 10% bovine calf serum (BCS; HYCLONE™) supplemented iron. The cells were seeded at 2×10^4 cells in 96-well culture plates, and serially diluted compounds were then added. After a 72 hour incubation period at 37° C., cell viability was measured using the ATPLite 1 step assay (PERKIN-ELMER™) that is based on the quantification of ATP from viable cells. […]

[2] = test system: Hs578T cells; assay: Cell viability assay (ATPLite), Hs578T; type: cell-based; conditions: Homo sapiens, Hs-578T; 72 hour incubation
Experimental: as §1, §2

SMILES: CN1CCC(Nc2nc(Nc3ccc(Oc4ccccc4)cc3)c3c(=O)[nH]cc(Br)c3n2)CC1 [Compound 222, 8-bromo-2-((1-methylpiperidin-4-yl)amino)-4-((4-phenoxyphenyl)amino)pyrido[4,3-d]pyrimidin-5(6H)-one]
- GI50 [1]: 3.1 to 10 µM
- GI50 [2]: 3.1 to 10 µM

— US12350272B2, “Pyridopyrimidinone derivatives for use as AXL inhibitors” (OSCOTEC INC., priority 2018, dated 2025)
